US20190269662A1, “SOLID COMPOSITIONS OF ACTIVES, PROCESSES FOR PREPARING SAME AND USES OF SUCH SOLID COMPOSITIONS” (The University of Liverpool, priority 2018, published 2019)

Assay: Maraviroc release rate by rapid equilibrium dialysis (RED), HPLC, transport buffer (Examples 8 and 14)
Type: physicochemical
Details: 8 kDa MWCO, 6 h, 37° C., 1 mg maraviroc
Protocol: The rate of maraviroc release from the three maraviroc oil-blended SDN formulations found to most reliably and reproducibly produce nanodispersions in Example 7 was assessed across a size selective (8 kDa MWCO) membrane using RED plates and inserts. Control experiments were also run testing the rate of maraviroc release from aqueous maraviroc and a conventional maraviroc SDN (ACS_14-70 wt % maraviroc; 20 wt % PVA; and 10 wt % AOT as described in 2). Transport buffer (TB—consisting of Hanks balanced salt solution, 25 mM HEPES and 0.1% Bovine Serum Albumin (BSA), pH 7.4) was spiked with either DMSO dissolved maraviroc (<5% DMSO), a conventional maraviroc SDN or a maraviroc oil-blended SDN. A total of 1 mg maraviroc was added to the donor compartments for each preparation in 0.1 ml dH2O with an additional 0.5 ml of TB added to the donor chambers. One-millilitre of TB was subsequently added to the corresponding acceptor chambers. The RED plates were sealed using Parafilm to avoid evaporation and placed on an orbital shaker (Heidolph Rotomax 120; 100 rpm, 6 h, 37° C.). […] Collected samples were analysed via HPLC.
Rapid equilibrium dialysis was performed as per Example 8. The compositions correspond to those found to form successful nanodispersions in Examples 9, 10 and 11. The data is also plotted as a bar graph in FIG. 16.

Question: With `Cc1nnc(C(C)C)n1[C@@H]1C[C@H]2CC[C@@H](C1)N2CC[C@H](NC(=O)C1CCC(F)(F)CC1)c1ccccc1` [maraviroc] as the molecule, how does the Rate of release read?
Answer: The Rate of release was 0.2491 h.
